Source: patent publication US20260384451A1, “6-ARYL IMIDAZO[2,1-B]THI/OpXAZOLE-2-CARBOXILIC ACID DERIVATIVE AND PHARMACEUTICAL COMPOSITION FOR TREATING ALZHEIMER'S DISEASE CONTAINING SAME AS ACTIVE INGREDIENT” (published 2026)

Protein sequences, listed by entry. Tags and fused reporters are not part of them.
UniProt P53779, whole entry: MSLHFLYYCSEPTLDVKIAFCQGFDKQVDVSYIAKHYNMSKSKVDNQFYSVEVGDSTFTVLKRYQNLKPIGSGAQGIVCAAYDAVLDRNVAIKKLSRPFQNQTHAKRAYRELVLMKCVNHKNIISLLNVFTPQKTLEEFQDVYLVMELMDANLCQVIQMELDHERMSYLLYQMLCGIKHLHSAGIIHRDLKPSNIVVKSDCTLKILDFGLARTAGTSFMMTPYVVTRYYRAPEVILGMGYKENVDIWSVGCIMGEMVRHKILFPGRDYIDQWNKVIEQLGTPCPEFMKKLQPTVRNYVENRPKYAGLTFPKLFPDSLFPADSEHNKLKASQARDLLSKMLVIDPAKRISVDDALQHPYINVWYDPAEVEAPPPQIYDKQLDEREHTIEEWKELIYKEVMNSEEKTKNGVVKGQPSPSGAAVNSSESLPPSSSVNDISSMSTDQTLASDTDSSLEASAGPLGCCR

Molecular target: JNK3 (Homo sapiens, UniProt P53779)
Assay: In vitro JNK3 inhibitory activity assay
Conditions: read-out: JNK3 inhibitory activity (IC50), class symbols
[1] = Table 1, imidazo[2,1-b]thiazole derivatives
[2] = Table 3, imidazo[2,1-b]oxazole derivatives
[3] = Table 7, imidazo[2,1-b]oxazole-based covalent inhibitors
[4] = Table 5, imidazo[2,1-b]oxazole derivatives
[5] = Table 2, imidazo[2,1-b]thiazole derivatives
[6] = Table 6, imidazo[2,1-b]thiazole-based covalent inhibitors

With `CNC(=O)c1cn2c(-c3ccnc(N[C@H]4CCCN(C(=O)C5CC5)C4)n3)c(-c3ccc4c(c3)OCCO4)nc2s1` the IC50 [1] was 30 to 1000 nM.
`CN(C)C(=O)N1CCC[C@@H](Nc2nccc(-c3c(-c4ccc(Cl)c(Cl)c4)nc4oc(C(N)=O)cn34)n2)C1` was tested, and the IC50 [2] was 1000 to 10000 nM.
Molecule `C=CC(=O)Nc1cn2c(-c3ccnc(NC4CCCCC4)n3)c(-c3ccc(Cl)c(Cl)c3)nc2o1` has an IC50 [3] of under 1 nM.
Molecule `CNC(=O)c1cn2c(-c3ccnc(NC4CCOCC4)n3)c(-c3ccc(Cl)c(Cl)c3)nc2o1` has an IC50 [4] of under 1 nM.
`CNC(=O)c1cn2c(-c3ccnc(N[C@@H]4CCN(C(=O)C5CC5)C4)n3)c(-c3ccc4ccccc4c3)nc2o1` gave an IC50 [2] of over 10000 nM.
With `CCOC(=O)c1cn2c(-c3ccnc(NC4CCCCC4)n3)c(-c3ccc4c(c3)OCCO4)nc2s1` the IC50 [5] was 30 to 1000 nM.
In the case of `CN(C)C(=O)N1CCC[C@H](Nc2nccc(-c3c(-c4ccc5ccccc5c4)nc4sc(C(N)=O)cn34)n2)C1`, the IC50 [1] is reported as 30 to 1000 nM.
In the case of `CN(C)C(=O)N1CCC[C@@H](Nc2nccc(-c3c(-c4ccc5ccccc5c4)nc4oc(C(N)=O)cn34)n2)C1`, the IC50 [2] is reported as under 1 nM.
Work on `CN(C)/C=C/C(=O)c1cn2c(-c3ccnc(NC4CCOCC4)n3)c(-c3ccc(Cl)c(Cl)c3)nc2o1` yielded an IC50 [3] of 1 to 30 nM.
In the case of `CCOC(=O)c1cn2c(-c3ccnc(N[C@H]4CCCN(C(=O)N(C)C)C4)n3)c(-c3ccc4c(c3)OCCO4)nc2s1`, the IC50 [1] is reported as 30 to 1000 nM.
In the case of `NC(=O)c1cn2c(-c3ccnc(NC4CCCCC4)n3)c(-c3ccc(Cl)c(Cl)c3)nc2o1`, the IC50 [4] is reported as under 1 nM.
In the case of `CCOC(=O)c1cn2c(-c3ccnc(N[C@H]4CCCN(C(=O)C5CC5)C4)n3)c(-c3ccc4c(c3)OCCO4)nc2o1`, the IC50 [2] is reported as under 1 nM.
`CCOC(=O)c1cn2c(-c3ccnc(N[C@H]4CCCN(C(=O)C5CC5)C4)n3)c(-c3ccc(Cl)c(Cl)c3)nc2o1` was tested, and the IC50 [2] was over 10000 nM.
`CN(C)C(=O)N1CCC[C@H](Nc2nccc(-c3c(-c4ccc5c(c4)OCCO5)nc4sc(C(N)=O)cn34)n2)C1` gave an IC50 [1] of 30 to 1000 nM.
`NC(=O)c1cn2c(-c3ccnc(NC4CCCCC4)n3)c(-c3ccc4ccccc4c3)nc2o1` showed an IC50 [4] of 30 to 1000 nM.
`CCOC(=O)c1cn2c(-c3ccnc(NC4CCOCC4)n3)c(-c3ccc4c(c3)OCCO4)nc2s1` showed an IC50 [5] of 1 to 30 nM.
`CNC(=O)c1cn2c(-c3ccnc(NC4CCCCC4)n3)c(-c3ccc(F)c(Cl)c3)nc2s1` showed an IC50 [5] of 1 to 30 nM.
Molecule `NC(=O)c1cn2c(-c3ccnc(N[C@@H]4CCCN(C(=O)C5CC5)C4)n3)c(-c3ccc4ccccc4c3)nc2o1` has an IC50 [2] of under 1 nM.
`C=CC(=O)Nc1cn2c(-c3ccnc(NC4CCCCC4)n3)c(-c3ccc(Cl)c(Cl)c3)nc2s1` showed an IC50 [6] of under 1 nM.
`CNC(=O)c1cn2c(-c3ccnc(NCC4CC4)n3)c(-c3ccc4ccccc4c3)nc2s1` gave an IC50 [5] of 1000 to 10000 nM.
For `CNC(=O)c1cn2c(-c3ccnc(N[C@H]4CCCN(C(=O)C5CC5)C4)n3)c(-c3ccc(Cl)c(Cl)c3)nc2s1`, the IC50 [1] was 30 to 1000 nM.
Work on `CN(C)/C=C/C(=O)c1cn2c(-c3ccnc(NC4CCCCC4)n3)c(-c3ccc4ccccc4c3)nc2o1` yielded an IC50 [3] of 1 to 30 nM.
Molecule `CN(C)/C=C/C(=O)c1cn2c(-c3ccnc(NC4CCOCC4)n3)c(-c3ccc(Cl)c(Cl)c3)nc2s1` has an IC50 [6] of under 1 nM.
`NC(=O)c1cn2c(-c3ccnc(NC4CCCCC4)n3)c(-c3ccc4ccccc4c3)nc2s1` was tested, and the IC50 [5] was 30 to 1000 nM.
In the case of `NC(=O)c1cn2c(-c3ccnc(N[C@@H]4CCN(C(=O)C5CC5)C4)n3)c(-c3ccc4ccccc4c3)nc2o1`, the IC50 [2] is reported as 1000 to 10000 nM.
Molecule `CNC(=O)c1cn2c(-c3ccnc(NC4CCCCC4)n3)c(-c3ccc(Cl)c(Cl)c3)nc2o1` has an IC50 [4] of under 1 nM.
With `NC(=O)c1cn2c(-c3ccnc(NC4CCOCC4)n3)c(-c3ccc(Cl)c(Cl)c3)nc2o1` the IC50 [4] was under 1 nM.
Molecule `NC(=O)c1cn2c(-c3ccnc(N[C@H]4CCCN(C(=O)C5CC5)C4)n3)c(-c3ccc(Cl)c(Cl)c3)nc2o1` has an IC50 [2] of 1000 to 10000 nM.
For `NC(=O)c1cn2c(-c3ccnc(N[C@H]4CCCN(C(=O)C5CC5)C4)n3)c(-c3ccc4c(c3)OCCO4)nc2o1`, the IC50 [2] was under 1 nM.
In the case of `C#CCNC(=O)c1cn2c(-c3ccnc(NC4CCCCC4)n3)c(-c3ccc4ccccc4c3)nc2o1`, the IC50 [3] is reported as 1 to 30 nM.
Molecule `CN(C)C(=O)N1CCC[C@@H](Nc2nccc(-c3c(-c4ccc(Cl)c(Cl)c4)nc4sc(C(N)=O)cn34)n2)C1` has an IC50 [1] of under 1 nM.
`NC(=O)c1cn2c(-c3ccnc(NC4CCOCC4)n3)c(-c3ccc4ccccc4c3)nc2s1` was tested, and the IC50 [5] was 30 to 1000 nM.

Like-named read-outs stand apart in the source and are kept apart here.
